Values of other authors, collected in patent publication US20240131013A1, “TETRAHYDRO-1H-PYRIDO[3,4-b]INDOLE ANTI-ESTROGENIC DRUGS” (Olema Pharmaceuticals, Inc., priority 2015, published 2024).

Test system: PR
Details: De Savi; cited from earlier work

In the case of `C[C@@H]1Cc2c([nH]c3ccccc23)[C@@H](c2ccc(/C=C/C(=O)O)cc2)N1CC(C)(C)F` [WO 2014/191726 Example 2], the “PR antagonism pIC50” value is given as 8.46 (±0.12).
